Here are results for twelve compounds from PMC10092094 (Chemmedchem, 2022).

Chains of the proteins cited; added tags and fusions are not shown.
UniProt O15527, whole entry: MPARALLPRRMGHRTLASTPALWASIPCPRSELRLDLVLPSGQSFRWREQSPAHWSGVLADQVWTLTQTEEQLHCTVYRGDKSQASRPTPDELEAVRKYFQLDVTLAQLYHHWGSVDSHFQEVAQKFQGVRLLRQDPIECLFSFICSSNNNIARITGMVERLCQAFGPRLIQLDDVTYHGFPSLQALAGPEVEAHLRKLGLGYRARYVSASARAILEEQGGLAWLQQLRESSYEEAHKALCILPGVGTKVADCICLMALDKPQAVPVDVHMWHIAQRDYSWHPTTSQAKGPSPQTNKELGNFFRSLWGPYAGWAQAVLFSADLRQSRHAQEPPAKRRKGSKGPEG

A value given as a limit tells only on which side of the number the result lay.

The target in experiment [1] is T1, OGG1 (Homo sapiens, UniProt O15527). Nature of the experiment: Differential scanning fluorimetry. It is filed as binding. Background: DSF heats the sample and reads unfolding from a dye or from intrinsic fluorescence.
Experiment [2] addresses T1, OGG1. The experiment can be described thus: biochemical. The note with it: IC50 (CI95), biochemical inhibition, confidence interval 95 in parentheses.

In the case of `O=C(Nc1ccc([N+](=O)[O-])cc1)N1CCC(n2c(=O)[nH]c3c(Br)cccc32)CC1` [Compound 48, 4‐(4‐bromo‐2‐oxo‐2,3‐dihydro‐1H‐1,3‐benzodiazol‐1‐yl)‐N‐(4‐nitrophenyl)piperidine‐1‐carboxamide], the “DSF stabilization (ΔT)” value at OGG1 [1] was -0.17 K. Broadly, the IC50 is the midpoint of a concentration-inhibition curve. Regarding `Cc1ccc(NC(=O)N2CCC(n3c(=O)[nH]c4cc(Cl)ccc43)CC2)cc1` [Compound 14, 4‐(5‐chloro‐2‐oxo‐2,3‐dihydro‐1H‐1,3‐benzodiazol‐1‐yl)‐N‐(4‐methylphenyl)piperidine‐1‐carboxamide], the IC50 at OGG1 [2] is above 100 µM. The “DSF stabilization (ΔT)” value at OGG1 [1] was determined as 1.5 K.

For `Cc1ccc2[nH]c(=O)n(C3CCN(C(=O)Nc4ccc(I)cc4)CC3)c2c1` [Compound 22, 4‐(6‐methyl‐2‐oxo‐2,3‐dihydro‐1H‐1,3‐benzodiazol‐1‐yl)‐N‐(4‐iodophenyl)piperidine‐1‐carboxamide], the “DSF stabilization (ΔT)” value on OGG1 [1] was 3.4 K.

Regarding `O=C(Nc1cccc(Cl)c1)N1CCC(n2c(=O)[nH]c3ccccc32)CC1` [Compound 3, N‐(3‐chlorophenyl)‐4‐(2‐oxo‐2,3‐dihydro‐1H‐1,3‐benzodiazol‐1‐yl)piperidine‐1‐carboxamide], the IC50 on OGG1 [2] was above 100 µM. For the same compound, the “DSF stabilization (ΔT)” value on OGG1 [1] stood at 1.2 K.

`CC(=O)Nc1ccc(NC(=O)N2CCC(n3c(=O)[nH]c4c(Br)cccc43)CC2)cc1` [Compound 51, 4‐(4‐bromo‐2‐oxo‐2,3‐dihydro‐1H‐1,3‐benzodiazol‐1‐yl)‐N‐(4‐acetamidophenyl)piperidine‐1‐carboxamide]: the “DSF stabilization (ΔT)” value on OGG1 [1] is recorded as -0.37 K. For `O=C(Nc1cccc(Cl)c1)N1CCC(n2c(=O)[nH]c3cc(Cl)ccc32)CC1` [Compound 13, 4‐(5‐chloro‐2‐oxo‐2,3‐dihydro‐1H‐1,3‐benzodiazol‐1‐yl)‐N‐(3‐chlorophenyl)piperidine‐1‐carboxamide], the IC50 at OGG1 [2] was above 100 µM. Further, the “DSF stabilization (ΔT)” value on OGG1 [1] was 1.3 K. In the case of `O=C(Nc1ccc(I)cc1)N1CCC(n2c(=O)[nH]c3cc(Cl)ccc32)CC1` [Compound 18, 4‐(5‐chloro‐2‐oxo‐2,3‐dihydro‐1H‐1,3‐benzodiazol‐1‐yl)‐N‐(4‐iodophenyl)piperidine‐1‐carboxamide], at OGG1 [2], the half-maximal inhibitory concentration (IC50) is 1.4 µM. For the compound `O=C(Nc1cccc(F)c1)N1CCC(n2c(=O)[nH]c3ccccc32)CC1` [Compound 2, N‐(3‐fluorophenyl)‐4‐(2‐oxo‐2,3‐dihydro‐1H‐1,3‐benzodiazol‐1‐yl)piperidine‐1‐carboxamide], on OGG1 [2], the IC50 was above 100 µM. The “DSF stabilization (ΔT)” value at OGG1 [1] is 1.6 K. Take `O=C(Nc1ccc([N+](=O)[O-])cc1)N1CCC(n2c(=O)[nH]c3ccccc32)CC1` [Compound 10, N‐(4‐nitrophenyl)‐4‐(2‐oxo‐2,3‐dihydro‐1H‐1,3‐benzodiazol‐1‐yl)piperidine‐1‐carboxamide]: on OGG1 [2], the IC50 is above 100 µM. Turning to `CCOC(=O)c1ccc(NC(=O)N2CCC(n3c(=O)[nH]c4c(Br)cccc43)CC2)cc1` [Compound 50, Ethyl‐4‐{[4‐(4‐bromo‐2‐oxo‐2,3‐dihydro‐1H‐1,3‐benzodiazol‐1‐yl)‐piperidine‐1‐carbonyl]‐amino}‐benzoate], the “DSF stabilization (ΔT)” value on OGG1 [1] is given as -0.11 K.

For `O=C(Nc1ccc(F)cc1)N1CCC(n2c(=O)[nH]c3ccccc32)CC1` [Compound 5, N‐(4‐fluorophenyl)‐4‐(2‐oxo‐2,3‐dihydro‐1H‐1,3‐benzodiazol‐1‐yl)piperidine‐1‐carboxamide], at OGG1 [2], the IC50 was above 100 µM. Besides, the “DSF stabilization (ΔT)” value on OGG1 [1] is 1.3 K. In the case of `O=C(Nc1ccc(F)cc1)N1CCC(n2c(=O)[nH]c3cc(Cl)ccc32)CC1` [Compound 15, 4‐(5‐chloro‐2‐oxo‐2,3‐dihydro‐1H‐1,3‐benzodiazol‐1‐yl)‐N‐(4‐fluorophenyl)piperidine‐1‐carboxamide], the “DSF stabilization (ΔT)” value on OGG1 [1] amounted to 1.7 K.
